Laboratory results taken from US4412998A, “Certain 4-(1-piperidino)-phenyl-nicotinates” (Merz & Company, priority 1979, dated 1983).

Experiment: in vivo
Conditions: rat

For `CCOC(=O)C(C)(C)Oc1ccc(Cl)cc1` [clofibrate, ethyl ester of 2-(p-chlorophenoxy)-isobutyric acid, reference compound], the selectivity ratio was 5.
